Experiments:
[1] = target: IRAK4 (Homo sapiens (Human), UniProt Q9NWZ3); test: IRAK4 Inhibition Assay; type: biochemical; conditions: read-out: IRAK4 IC50; ATP 500 μM; IRAK4 0.6 nM; 60 min at room temperature
[2] = tested on: TLR2 induced IL-6 in peripheral blood mononuclear cells (PBMCs); test: PBMC TLR2 Induced IL-6 Assay; type: cell-based; conditions: human PBMCs, 10 μg/ml lipoteichoic acid for 5 hours, IL-6 by ELISA; for IC50: read-out: Cell IC50, value without asterisk

Sequences of proteins named here, by UniProt entry; tags and fusion partners are left off.
UniProt Q9NWZ3, whole entry: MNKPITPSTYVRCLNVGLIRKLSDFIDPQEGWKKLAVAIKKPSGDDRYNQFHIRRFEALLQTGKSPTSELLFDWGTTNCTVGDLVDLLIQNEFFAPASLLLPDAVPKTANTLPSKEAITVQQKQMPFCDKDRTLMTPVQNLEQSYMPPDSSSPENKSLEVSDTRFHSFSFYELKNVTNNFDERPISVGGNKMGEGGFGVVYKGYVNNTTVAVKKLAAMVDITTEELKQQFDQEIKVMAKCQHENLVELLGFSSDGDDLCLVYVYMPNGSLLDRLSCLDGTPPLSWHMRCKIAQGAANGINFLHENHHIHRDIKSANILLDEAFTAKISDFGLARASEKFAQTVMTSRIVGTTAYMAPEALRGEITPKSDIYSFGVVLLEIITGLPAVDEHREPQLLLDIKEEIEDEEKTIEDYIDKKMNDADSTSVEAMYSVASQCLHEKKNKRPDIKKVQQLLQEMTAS

Row | Compound | IC50 [1] [nM] | IC50 [2] [nM] | EC50 ([2]; read-out: Cell EC50 (asterisk), EC50 determinations are indicated with an asterisk) [nM]
1 | O=C(NCCC1CCN(Cc2ccccc2)CC1)c1cnc(Nc2ccc3ncsc3c2)cc1NC1CCCC1 | 6.3 | 492 | –
2 | O=C(N[C@H]1CC[C@H](O)CC1)c1cnc(Nc2nc3scnc3cc2F)cc1NC1CC1 | – | – | 539
3 | CC(C)(O)[C@H](F)CNC(=O)c1cnc(Nc2ccc3ncsc3c2)cc1NC12CC3CC(CC(N)(C3)C1)C2 | 5.7 | 156 | –
